Results reported in patent publication US12162888B2, “Carboxamides as ubiquitin-specific protease inhibitors” (Valo Early Discovery, Inc., priority 2018, dated 2024).

Chains of the proteins cited; added tags and fusions are not shown.
UniProt Q96RU2, whole entry: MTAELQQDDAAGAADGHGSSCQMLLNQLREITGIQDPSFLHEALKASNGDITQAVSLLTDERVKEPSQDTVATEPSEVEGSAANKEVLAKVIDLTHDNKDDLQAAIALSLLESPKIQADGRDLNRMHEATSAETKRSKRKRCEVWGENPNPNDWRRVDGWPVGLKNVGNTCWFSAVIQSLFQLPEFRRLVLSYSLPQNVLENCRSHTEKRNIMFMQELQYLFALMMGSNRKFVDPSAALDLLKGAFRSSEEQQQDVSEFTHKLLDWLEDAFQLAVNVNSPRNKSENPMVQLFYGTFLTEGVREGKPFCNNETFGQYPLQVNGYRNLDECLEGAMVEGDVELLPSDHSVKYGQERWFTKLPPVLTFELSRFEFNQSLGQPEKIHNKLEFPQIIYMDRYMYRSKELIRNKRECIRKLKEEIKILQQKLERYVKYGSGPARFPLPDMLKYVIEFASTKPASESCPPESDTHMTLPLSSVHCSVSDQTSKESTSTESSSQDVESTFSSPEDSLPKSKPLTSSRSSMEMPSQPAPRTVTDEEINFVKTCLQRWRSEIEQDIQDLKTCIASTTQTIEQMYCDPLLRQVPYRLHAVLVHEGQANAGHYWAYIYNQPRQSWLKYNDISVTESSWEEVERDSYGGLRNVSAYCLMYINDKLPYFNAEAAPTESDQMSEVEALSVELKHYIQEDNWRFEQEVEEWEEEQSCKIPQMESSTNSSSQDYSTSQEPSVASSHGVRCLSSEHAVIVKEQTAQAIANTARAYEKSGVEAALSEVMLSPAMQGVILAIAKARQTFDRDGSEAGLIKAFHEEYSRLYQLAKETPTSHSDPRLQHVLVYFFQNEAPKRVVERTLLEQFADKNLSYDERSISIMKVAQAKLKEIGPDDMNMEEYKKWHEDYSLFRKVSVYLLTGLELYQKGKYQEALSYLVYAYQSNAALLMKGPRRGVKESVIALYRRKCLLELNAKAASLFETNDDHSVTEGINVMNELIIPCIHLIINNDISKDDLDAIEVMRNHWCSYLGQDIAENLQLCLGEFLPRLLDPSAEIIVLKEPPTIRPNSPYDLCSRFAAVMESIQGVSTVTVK
UniProt Q9UHP3, whole entry: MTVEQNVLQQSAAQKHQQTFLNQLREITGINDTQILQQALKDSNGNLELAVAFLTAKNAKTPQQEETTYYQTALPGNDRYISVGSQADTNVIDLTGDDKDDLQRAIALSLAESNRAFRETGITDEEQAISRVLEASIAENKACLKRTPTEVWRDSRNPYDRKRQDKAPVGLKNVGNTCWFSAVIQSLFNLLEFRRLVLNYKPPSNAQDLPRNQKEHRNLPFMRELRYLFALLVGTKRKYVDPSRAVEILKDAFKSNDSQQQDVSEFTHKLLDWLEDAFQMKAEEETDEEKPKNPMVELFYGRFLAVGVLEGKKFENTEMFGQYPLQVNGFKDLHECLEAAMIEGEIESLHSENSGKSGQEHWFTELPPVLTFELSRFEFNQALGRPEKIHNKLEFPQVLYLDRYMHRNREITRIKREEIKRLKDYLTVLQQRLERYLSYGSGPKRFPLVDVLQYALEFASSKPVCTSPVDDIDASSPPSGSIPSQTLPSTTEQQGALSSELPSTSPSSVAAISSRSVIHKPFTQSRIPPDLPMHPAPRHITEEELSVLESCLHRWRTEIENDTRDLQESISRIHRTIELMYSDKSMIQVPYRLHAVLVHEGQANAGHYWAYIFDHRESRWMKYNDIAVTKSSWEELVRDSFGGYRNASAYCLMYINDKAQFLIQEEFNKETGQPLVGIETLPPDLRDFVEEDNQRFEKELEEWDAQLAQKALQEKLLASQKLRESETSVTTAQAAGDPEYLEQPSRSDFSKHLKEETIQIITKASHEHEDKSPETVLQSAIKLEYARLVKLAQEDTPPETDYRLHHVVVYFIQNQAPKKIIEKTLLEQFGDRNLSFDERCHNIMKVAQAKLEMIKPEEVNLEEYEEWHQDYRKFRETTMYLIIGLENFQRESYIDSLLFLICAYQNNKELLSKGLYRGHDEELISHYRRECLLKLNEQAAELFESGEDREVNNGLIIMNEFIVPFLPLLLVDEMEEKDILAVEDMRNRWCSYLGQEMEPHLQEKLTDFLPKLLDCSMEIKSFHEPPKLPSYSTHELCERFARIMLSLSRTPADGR

Assays:
[1] = molecular target: USP28 (His-tagged USP28-FL-mammalian) (Homo sapiens, UniProt Q96RU2); test: Ubiquitin-Rhodamine 110 Assay for USP28 Activity, Example A-1(a); details: read-out: USP28 A-1(a), biochemical IC50 range
Protocol: Example A-1(a): Biochemical Assay: Ubiquitin-Rhodamine 110 Assay for USP28 Activity
The assay was performed in a final volume of 9 μL in assay buffer containing 20 mM Tris-HCl (pH 8.0, (1M Tris-HCl, pH 8.0 solution; Corning 46-031-CM)), 3 mM BME (2-Mercaptoethanol; Sigma 63689-25ML-F), 0.03% BGG (0.22 μM filtered, Sigma, G7516-25G), and 0.01% Triton X-100 (Sigma, T9284-10L). Nanoliter quantities of 10-point, 3-fold serial dilution in DMSO was pre-dispensed into 1536 assay plates (Corning, #3724BC) for a final test concentration of 25 μM to 1.3 nM, top to lowest dose, respectively. Enzyme USP28, construct His-tagged USP28-FL-mammalian, (protein expression and purification procedure described below). Concentration and incubation times were optimized for the maximal signal-to-background while maintaining initial velocity conditions at a fixed substrate concentration. The final concentration of the enzyme in the assay was […]. Final substrate (Ub-Rh110; Ubiquitin-Rhodamine 110, UbiQ-126) concentration was 25 nM with [Ub-Rh110]<<Km. 3 μL of 2× enzyme was added to assay plates (pre-stamped with compound) preincubated with […] for 30 minutes and then 3 μL of 2× Ub-Rh110 was added to assay plates. Plates were incubated for 45 minutes at room temperature before addition of 3 μL of stop solution (final concentration of 10 mM citric acid (Sigma, 251275-500G)). Fluorescence was read on the Envision (Excitation at 485 nm and Emission at 535 nm; Perkin Elmer) or on the PheraSTAR (Excitation at 485 nm and Emission at 535 nm; BMG Labtech). […]
(§1) For assay formats Example A-1(a), A-1(b), and A-2, data were reported as percent inhibition compared with control wells based on the following equation: % inh=1−((FLU−AveLow)/(AveHigh−AveLow)) where FLU=measured Fluorescence, AveLow=average Fluorescence of no enzyme control (n=16), and AveHighh=average Fluorescence of DMSO control (n=16). IC50 values were determined by curve fitting of the standard 4 parameter logistic fitting algorithm included in the Activity Base software package: IDBS XE Designer Model 205. […]

[2] = molecular target: USP25 (USP25-His6, Boston Biochem E-546) (Homo sapiens, UniProt Q9UHP3); test: Ubiquitin-Rhodamine 110 Assay for USP25 Activity, Example A-3; details: read-out: USP25 A-3, biochemical IC50 range
Protocol: Example A-3: Biochemical Assay: Ubiquitin-Rhodamine 110 Assay for USP25 Activity
The assay was performed in a final volume of 9 μL in assay buffer containing 20 mM Tris-HCl (pH 8.0, (1M Tris-HCl, pH 8.0 solution; Corning 46-031-CM)), 3 mM BME (2-Mercaptoethanol; Sigma 63689-25ML-F), 0.03% BGG (0.22 μM filtered, Sigma, G7516-25G), and 0.01% Triton X-100 (Sigma, T9284-10L). Nanoliter quantities of 10-point, 3-fold serial dilution in DMSO was pre-dispensed into 1536 assay plates (Corning, #3724BC) for a final test concentration of 25 μM to 1.3 nM, top to lowest dose, respectively. Enzyme USP25, construct USP25-His6, (Boston Biochem E-546). […] Fluorescence was read on the Envision (Excitation at 485 nm and Emission at 535 nm; Perkin Elmer) or on the PheraSTAR (Excitation at 485 nm and Emission at 535 nm; BMG Labtech).
as §1

Q: `COC[C@H]1CN(c2ccc3c(c2)OC[C@H](NC(=O)c2sc4nc(C)ccc4c2N)C3)CCN1` was tested. Which pIC50 [1] did it give?
A: 7.30 to 9.00

Q: And the pIC50 [2]?
A: 5.70 to 6.70

Q: `Cc1ccc2c(N)c(C(=O)N[C@H]3COc4cc(N5CC[C@H]6CNC[C@H]65)cc(F)c4C3)sc2n1` was tested. Which pIC50 [1] did it give?
A: 7.30 to 9.00

Q: And the pIC50 [2]?
A: 6.70 to 7.30

Q: How did the pIC50 [1] turn out when `Cc1ccc2c(N)c(C(=O)NC3COc4cc(N5CC(N)C6(C5)OCCC6C)ccc4C3)sc2n1` (centres unmarked) was run?
A: 7.30 to 9.00

pIC50: −log10 of the molar value.
